# AlphaSeq binding of Ab-91 heavy chain variants to a spike HR2 peptide

Binding partner: SARS-CoV-2 spike HR2 peptide, sequence PDVDLGDISGINAS.

Parent scFv Ab-91: VL joined to VH by a (GGGGS)3 linker. Changes lie in the heavy chain CDRs alone.
VL: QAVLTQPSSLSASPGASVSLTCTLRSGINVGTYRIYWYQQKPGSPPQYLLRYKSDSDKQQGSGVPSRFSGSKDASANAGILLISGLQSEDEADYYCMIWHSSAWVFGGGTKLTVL
VH: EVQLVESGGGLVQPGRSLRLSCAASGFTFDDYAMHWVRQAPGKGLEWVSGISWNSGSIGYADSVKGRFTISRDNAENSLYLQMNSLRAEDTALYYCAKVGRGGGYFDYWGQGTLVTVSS

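Phage display of a naive human antibody library on the peptide gave the parent. AAYL51 was designed without a model: most single CDR substitutions and a random sample of double and triple ones. Affinity was read by AlphaSeq, a pooled yeast mating assay with surface-displayed partners. The frequency of each diploid, read from paired DNA barcodes, reflects how well the two displayed proteins bind. The ratio of observed to expected reads was calibrated, replicate by replicate, on BCL2-family standards whose Kd was known from biolayer interferometry. The assay was run in three technical replicates.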

Positions count from residue 1 of the parent VH; S57C puts C in place of S.
Scale: log10 of Kd in nM, estimated from mating counts; low values are strong binders.
A mean of the replicates is given; it leaves out those without a signal.
Where no diploid with the target was found in that replicate, the entry reads "nd": below detection, most likely a poor binder, though not proof of it.
Nonspecific signal, from three strains lacking the peptide, appeared in 21% of pairings of library AAYL51, centred on 4.54 (5% of these signals below 3.26); values are not corrected for it. For each scFv, signals with the empty controls are counted beside the result, with their mean in brackets.

{"changes": "S57C+Y60N+S63N", "replicates, log10 nM": "nd nd nd", "mean, log10 nM": "nd", "control signals": "1 of 9 (3.42)"}
{"changes": "F29E+D30W+I58K", "replicates, log10 nM": "4.42 nd nd", "mean, log10 nM": "4.42", "control signals": "3 of 9 (3.84)"}
{"changes": "H35A+V64I+K65F", "replicates, log10 nM": "nd nd 4.37", "mean, log10 nM": "4.37", "control signals": "1 of 9 (4.01)"}
{"changes": "F29Q+Y60E+R101V", "replicates, log10 nM": "nd nd nd", "mean, log10 nM": "nd", "control signals": "0 of 9"}
{"changes": "F29I+W53L+I58G", "replicates, log10 nM": "3.76 nd nd", "mean, log10 nM": "3.76", "control signals": "1 of 9 (3.56)"}
{"changes": "H35A+G100T+G102R", "replicates, log10 nM": "5.87 nd nd", "mean, log10 nM": "5.87", "control signals": "5 of 9 (5.19)"}
{"changes": "S55D+G59H+G103E", "replicates, log10 nM": "4.71 nd nd", "mean, log10 nM": "4.71", "control signals": "4 of 9 (4.37)"}
{"changes": "G56W+S57Y+D107H", "replicates, log10 nM": "1.49 1.48 0.95", "mean, log10 nM": "1.30", "control signals": "3 of 9 (4.20)"}
{"changes": "D30C+S52Y+S63T", "replicates, log10 nM": "nd nd nd", "mean, log10 nM": "nd", "control signals": "0 of 9"}
{"changes": "D62C+G100H+D107I", "replicates, log10 nM": "1.74 1.66 1.53", "mean, log10 nM": "1.64", "control signals": "3 of 9 (4.41)"}
{"changes": "F27T+G100R+Y108P", "replicates, log10 nM": "nd 4.23 nd", "mean, log10 nM": "4.23", "control signals": "2 of 9 (4.39)"}
{"changes": "Y32V+R101Q+F106I", "replicates, log10 nM": "nd nd nd", "mean, log10 nM": "nd", "control signals": "1 of 9 (3.89)"}
{"changes": "I58Y+S63R+Y105M", "replicates, log10 nM": "nd nd nd", "mean, log10 nM": "nd", "control signals": "0 of 9"}
{"changes": "G56W+V99A+G100Y", "replicates, log10 nM": "4.43 nd nd", "mean, log10 nM": "4.43", "control signals": "3 of 9 (4.64)"}
{"changes": "A33M+I58W+G100R", "replicates, log10 nM": "4.72 nd nd", "mean, log10 nM": "4.72", "control signals": "0 of 9"}
{"changes": "G26E+G50R+G100N", "replicates, log10 nM": "nd nd nd", "mean, log10 nM": "nd", "control signals": "1 of 9 (3.73)"}
{"changes": "T28K+I58G+G102H", "replicates, log10 nM": "1.70 2.76 2.11", "mean, log10 nM": "2.19", "control signals": "0 of 9"}
{"changes": "F29V+G56P+F106H", "replicates, log10 nM": "4.79 5.57 5.70", "mean, log10 nM": "5.35", "control signals": "7 of 9 (5.13)"}
{"changes": "F29V+N54I+G59M", "replicates, log10 nM": "5.65 4.89 4.45", "mean, log10 nM": "5.00", "control signals": "3 of 9 (4.19)"}
{"changes": "V64P+K65G+R101M", "replicates, log10 nM": "nd nd nd", "mean, log10 nM": "nd", "control signals": "5 of 9 (4.43)"}
{"changes": "Y32I+G102K", "replicates, log10 nM": "nd nd nd", "mean, log10 nM": "nd", "control signals": "5 of 9 (4.25)"}
{"changes": "Y60W+V99I+Y105V", "replicates, log10 nM": "5.14 5.92 nd", "mean, log10 nM": "5.53", "control signals": "0 of 9"}
{"changes": "G56H+G59Y+S63D", "replicates, log10 nM": "4.28 4.79 4.33", "mean, log10 nM": "4.46", "control signals": "1 of 9 (3.99)"}
{"changes": "F27K+T28C+R101N", "replicates, log10 nM": "nd nd nd", "mean, log10 nM": "nd", "control signals": "0 of 9"}
{"changes": "Y32P+S55V+S63V", "replicates, log10 nM": "3.54 nd 4.33", "mean, log10 nM": "3.93", "control signals": "1 of 9 (4.78)"}
{"changes": "G26P+A33G+D107C", "replicates, log10 nM": "nd 5.52 nd", "mean, log10 nM": "5.52", "control signals": "4 of 9 (4.11)"}
{"changes": "V64H+G102D+G104W", "replicates, log10 nM": "5.50 nd 3.51", "mean, log10 nM": "4.50", "control signals": "1 of 9 (3.71)"}
{"changes": "G50P+I51T+G104T", "replicates, log10 nM": "4.00 nd nd", "mean, log10 nM": "4.00", "control signals": "3 of 9 (4.06)"}
{"changes": "G26A+H35C+D107V", "replicates, log10 nM": "nd nd 5.85", "mean, log10 nM": "5.85", "control signals": "5 of 9 (4.66)"}

Parent in this assay: reference entry 1.86, copy in this library 0.88.

Values reported by Engelhart et al. 2022, doi:10.1038/s41597-022-01779-4 (FLAb copy).